Earlier results on one molecule are cited in PMC5424110, “Preclinical anti-arthritic study and pharmacokinetic properties of a potent histone deacetylase inhibitor MPT0G009” (Cell Death & Disease, 2014).

This data set deals with osteoclastogenesis. The arrangement: method as in PMID 19766111. The settings on record: cited from earlier work.

`O=C(CCCCCCC(=O)Nc1ccccc1)NO` [SAHA, suberoylanilide hydroxamic acid, reference compound]: the “concentration that suppresses osteoclastogenesis in vitro” value is on record as 300 nM.
